Our source for the IC50 values is ChEMBL document CHEMBL5241098, “Progress in the development of small molecular inhibitors of the Bruton's tyrosine kinase (BTK) as a promising cancer therapy” (Bioorg Med Chem, 2021).

Sequences of proteins named here, by UniProt entry; tags and fusion partners are left off. A change or cut given only in a name is not applied to a line headed by its entry.
UniProt Q06187: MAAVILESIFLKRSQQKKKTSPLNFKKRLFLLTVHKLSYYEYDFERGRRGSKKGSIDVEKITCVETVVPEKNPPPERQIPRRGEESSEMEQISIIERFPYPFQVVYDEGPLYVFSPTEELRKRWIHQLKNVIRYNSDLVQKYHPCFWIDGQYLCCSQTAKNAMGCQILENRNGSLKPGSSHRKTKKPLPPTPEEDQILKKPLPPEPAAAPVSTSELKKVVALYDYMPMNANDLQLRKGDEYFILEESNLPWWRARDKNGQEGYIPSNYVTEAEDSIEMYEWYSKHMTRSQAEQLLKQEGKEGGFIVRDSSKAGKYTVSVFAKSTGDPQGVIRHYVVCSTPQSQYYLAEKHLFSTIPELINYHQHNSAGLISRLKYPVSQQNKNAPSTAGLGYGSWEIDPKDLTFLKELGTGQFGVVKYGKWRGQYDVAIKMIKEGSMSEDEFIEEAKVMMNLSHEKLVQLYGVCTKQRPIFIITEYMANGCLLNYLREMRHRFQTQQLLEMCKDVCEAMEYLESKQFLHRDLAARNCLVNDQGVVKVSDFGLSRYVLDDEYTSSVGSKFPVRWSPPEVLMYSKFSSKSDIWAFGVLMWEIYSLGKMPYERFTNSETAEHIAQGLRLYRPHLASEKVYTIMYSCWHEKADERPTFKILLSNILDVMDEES

The target in this test is Tyrosine-protein kinase BTK (Homo sapiens, UniProt Q06187). Put plainly: Irreversible inhibition of BTK (unknown origin).

As usually defined, the IC50 is the point on the concentration scale where inhibition reaches its midpoint. The low end stands for higher potency, the high end for lower potency. In turn, `C=CC(=O)N1CCC(Nc2ncnc(N)c2-c2ccc(Oc3ccccc3)cc2)C1` (single isomer, unassigned) yielded an IC50 of 0.5 nM.
